Measurements published in PMC9375819 (EJNMMI Research, 2022).

By UniProt entry, the sequences of proteins in these tests, tags left out. Where a name states a change or a piece, a line headed by the entry shows the natural chain unless it says otherwise.
UniProt Q13315: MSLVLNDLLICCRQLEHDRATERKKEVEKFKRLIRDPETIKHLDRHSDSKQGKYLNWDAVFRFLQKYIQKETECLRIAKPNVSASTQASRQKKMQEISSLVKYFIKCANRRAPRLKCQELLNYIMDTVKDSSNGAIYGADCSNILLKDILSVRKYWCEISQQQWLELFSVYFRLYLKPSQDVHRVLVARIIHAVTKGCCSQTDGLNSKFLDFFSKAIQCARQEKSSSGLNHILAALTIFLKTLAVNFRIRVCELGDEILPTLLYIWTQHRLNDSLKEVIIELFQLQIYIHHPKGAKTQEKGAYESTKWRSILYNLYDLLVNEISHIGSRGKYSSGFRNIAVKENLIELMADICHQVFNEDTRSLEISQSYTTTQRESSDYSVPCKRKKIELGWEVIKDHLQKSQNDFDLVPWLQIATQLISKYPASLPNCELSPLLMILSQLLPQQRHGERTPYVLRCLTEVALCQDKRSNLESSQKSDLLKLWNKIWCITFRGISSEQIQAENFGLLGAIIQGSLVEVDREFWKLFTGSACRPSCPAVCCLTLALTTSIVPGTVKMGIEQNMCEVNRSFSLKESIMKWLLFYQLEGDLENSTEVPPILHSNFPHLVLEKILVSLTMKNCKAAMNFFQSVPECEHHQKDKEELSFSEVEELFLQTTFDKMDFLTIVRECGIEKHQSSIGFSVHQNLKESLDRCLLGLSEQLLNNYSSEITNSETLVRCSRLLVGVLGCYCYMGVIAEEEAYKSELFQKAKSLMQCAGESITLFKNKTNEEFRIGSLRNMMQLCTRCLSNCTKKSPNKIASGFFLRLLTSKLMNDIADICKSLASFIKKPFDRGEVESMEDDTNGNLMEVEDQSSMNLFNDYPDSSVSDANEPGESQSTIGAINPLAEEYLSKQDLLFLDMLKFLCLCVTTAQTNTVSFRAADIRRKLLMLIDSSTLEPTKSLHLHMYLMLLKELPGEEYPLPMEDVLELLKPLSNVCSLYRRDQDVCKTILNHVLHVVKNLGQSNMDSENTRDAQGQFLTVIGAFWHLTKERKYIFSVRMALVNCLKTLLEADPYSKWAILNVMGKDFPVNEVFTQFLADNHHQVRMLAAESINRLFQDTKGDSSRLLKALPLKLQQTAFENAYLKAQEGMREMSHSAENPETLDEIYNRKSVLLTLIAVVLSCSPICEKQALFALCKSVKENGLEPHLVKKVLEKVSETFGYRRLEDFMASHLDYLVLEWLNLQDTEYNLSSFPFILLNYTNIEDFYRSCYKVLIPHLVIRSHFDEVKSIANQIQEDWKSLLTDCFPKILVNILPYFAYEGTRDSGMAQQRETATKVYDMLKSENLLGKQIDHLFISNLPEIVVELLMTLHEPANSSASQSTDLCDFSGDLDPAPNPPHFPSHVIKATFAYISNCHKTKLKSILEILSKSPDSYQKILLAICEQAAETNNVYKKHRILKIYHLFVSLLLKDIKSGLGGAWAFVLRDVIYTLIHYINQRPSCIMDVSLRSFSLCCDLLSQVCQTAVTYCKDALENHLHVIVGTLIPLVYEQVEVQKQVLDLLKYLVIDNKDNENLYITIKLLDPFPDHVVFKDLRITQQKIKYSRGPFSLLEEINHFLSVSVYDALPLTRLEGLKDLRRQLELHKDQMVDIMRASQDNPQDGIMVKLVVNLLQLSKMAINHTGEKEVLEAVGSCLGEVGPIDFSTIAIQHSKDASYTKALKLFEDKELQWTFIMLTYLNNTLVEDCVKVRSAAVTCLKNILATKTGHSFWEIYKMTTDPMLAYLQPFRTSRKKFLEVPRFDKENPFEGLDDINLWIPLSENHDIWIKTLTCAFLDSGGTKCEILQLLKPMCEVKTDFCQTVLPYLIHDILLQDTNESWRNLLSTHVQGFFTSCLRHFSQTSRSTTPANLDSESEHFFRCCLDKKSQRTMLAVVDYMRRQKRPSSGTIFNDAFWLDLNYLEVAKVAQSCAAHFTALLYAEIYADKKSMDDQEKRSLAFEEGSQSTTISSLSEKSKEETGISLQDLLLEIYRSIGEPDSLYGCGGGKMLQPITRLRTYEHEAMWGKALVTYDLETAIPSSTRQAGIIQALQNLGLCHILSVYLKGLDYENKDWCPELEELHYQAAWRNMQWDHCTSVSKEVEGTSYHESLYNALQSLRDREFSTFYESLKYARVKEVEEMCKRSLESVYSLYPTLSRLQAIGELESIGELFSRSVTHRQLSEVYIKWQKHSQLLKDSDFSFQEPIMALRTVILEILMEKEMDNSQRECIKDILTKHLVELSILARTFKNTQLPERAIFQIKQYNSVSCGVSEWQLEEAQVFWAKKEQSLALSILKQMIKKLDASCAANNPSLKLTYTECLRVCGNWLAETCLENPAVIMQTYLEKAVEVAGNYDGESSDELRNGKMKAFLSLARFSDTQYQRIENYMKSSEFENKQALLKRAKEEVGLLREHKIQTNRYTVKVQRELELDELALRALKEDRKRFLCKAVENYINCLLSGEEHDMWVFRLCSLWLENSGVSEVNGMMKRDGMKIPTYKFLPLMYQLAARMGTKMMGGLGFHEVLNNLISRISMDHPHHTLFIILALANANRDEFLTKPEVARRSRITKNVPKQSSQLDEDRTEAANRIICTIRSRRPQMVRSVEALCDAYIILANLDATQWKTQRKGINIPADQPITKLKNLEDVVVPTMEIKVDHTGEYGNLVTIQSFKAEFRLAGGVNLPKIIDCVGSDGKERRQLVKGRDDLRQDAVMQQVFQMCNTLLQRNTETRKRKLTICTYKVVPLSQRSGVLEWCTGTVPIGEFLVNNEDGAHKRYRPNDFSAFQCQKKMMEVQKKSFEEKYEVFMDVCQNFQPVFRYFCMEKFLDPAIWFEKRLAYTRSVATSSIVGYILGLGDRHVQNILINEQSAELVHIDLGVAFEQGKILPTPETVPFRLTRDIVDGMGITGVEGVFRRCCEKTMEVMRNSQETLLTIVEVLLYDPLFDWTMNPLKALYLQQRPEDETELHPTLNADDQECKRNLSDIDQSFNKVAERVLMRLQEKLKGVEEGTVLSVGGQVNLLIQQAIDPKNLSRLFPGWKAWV

Tests used:
ATM [1] = molecular target: T1, ATM (Homo sapiens, UniProt Q13315); assay: Western blot of pATM, pKAP1 and pCHK2 in irradiated H1299 shGFP cells; format: cell-based; conditions: irradiated (4 Gy) H1299 shGFP knockdown cells, inhibitor 1 h before irradiation, relative to DMSO control
T1 construct: endogenous in cells; host or cells: H1299 shGFP and shATM cells
Procedure: (§1) H1299 non-small cell lung cancer cells, either wild type or stably transfected with short hairpin RNA for ATM (shATM) or GFP (shGFP, as a control) expression knockdown, were kindly gifted by Dr Anderson Ryan at the University of Oxford. All cells were cultured at 37 °C and 5% CO2 in Dulbecco’s modified Eagle medium (DMEM) supplemented with 10% foetal bovine serum (FBS) (Gibco, USA), 2 mM L-glutamine, 100 units/mL penicillin, and 100 µg/mL streptomycin (PSG) (Sigma-Aldrich); knockdown cell lines were additionally supplemented with 0.5 μg/mL puromycin dihydrochloride (Merck Life Science, UK). Cells were originally purchased from ATCC and were authenticated by the provider and by STR profiling. Cells were tested regularly for the absence of mycoplasma contamination and were cultured for a maximum of 20 passages after resuscitation from liquid nitrogen storage.
Western blot analysis was performed to compare the total ATM expression between cell models, in addition to expression of phospho-ATM^S1981 (pATM), phospho-KAP1^S824 (pKAP1), and phospho-CHK2^T68 (pCHK2) expression to assess the effect of irradiation and ATM inhibition on ATM catalytic activity. Cells were irradiated (4 Gy; 0.75 Gy/min) or sham-irradiated and incubated at 37 °C for 1 h before harvesting cells for lysis and blotting (full details in supporting information). […]

ATM [2] = molecular target: T1, ATM; assay: Blocking of [18F]1 cell-associated activity by non-radioactive ATM inhibitors; format: cell-based
Procedure: as §1
Blocking studies followed the same procedure as uptake with 1 h tracer incubation; however, the replacement media contained the blocking agent at the indicated concentrations in no greater than 10% DMSO, and a DMSO control was also run in parallel at the highest DMSO concentration used, followed by incubation at 37 °C and 5% CO2 for 1 h before irradiation.

**Q.** For `CN(C)CCCOc1ccc(-c2ccc3ncc4c(c3c2)n(C2CCOCC2)c(=O)n4C)cn1` [AZD0156, 8-{6-[3-(Dimethylamino)propoxy]pyridin-3-yl}-3-methyl-1-(tetrahydro-2 H-pyran-4-yl)-1,3-dihydro-2 H-imidazo[4,5-c]quinolin-2-one], which “pATM expression and downstream targets pKAP1 and pCHK2, western blot” value (ATM [1]) is on record?
**A.** decrease in pATM expression

**Q.** And the “effect on [18F]1 cell-associated activity at high molar excess” value (ATM [2]; 1000 nM inhibitor, compared to DMSO control)?
**A.** increase in cell-associated activity

**Q.** What about the “effect on [18F]1 cell-associated activity at lower inhibitor concentrations” value (ATM [2]; 0.1–10 nM inhibitor, H1299 shATM and shGFP cells) of the same molecule?
**A.** initial blocking effect
